Measured values reported in patent publication US20040214320A1, “Mammalian gamete and embryo culture media supplement and method of using same” (Vitrolife, Inc,, priority 2000, published 2004).
Marks after values point to notes of the source that are not given here.

Columns and labels:
[1] = tested on: CF1 mouse blastocysts; assay: Blastocyst attachment and outgrowth in culture following cryopreservation; type: cell-based
Method: The ability of the blastocysts to outgrow in culture following cryopreservation was also assessed. The outgrowth of both the ICM and TE was scored between 0-3 where 0 represented no outgrowth and 3 represented extensive outgrowth.

[2] = tested on: CF1 mouse embryos; assay: CF1 mouse embryo culture to the blastocyst stage; type: cell-based
Method: (§1) This experiment investigated the effects of growing CF1 mouse embryos in culture in the presence of rHA and HYN on the ability of the embryos to survive freezing and thawing. CF1 mouse embryos were cultured to the blastocyst stage and development and ability to survive the freezing procedure was assessed.

[3] = tested on: CF1 mouse embryos; assay: CF1 mouse blastocyst survival of freezing and thawing; type: cell-based
Method: as §1

[4] = tested on: outbred mouse embryo; assay: Outbred mouse embryo development in culture, fertilized eggs cultured 4 days (G1.2 48 h, then G2.2 48 h); type: cell-based
Method: Embryos were cultured at 37° C. in 6% CO2:5% O2:89% N2 in an embryo incubation volume of 10 embryos: 20 μl of medium. Embryos were cultured in medium G 1.2 for 48 h followed by 48 h of culture in medium G 2.2.
Initial experiments investigated replacing albumin purified from blood with HYN for outbred mouse embryo development in culture. Fertilized eggs were cultured for 4 days in one of 4 different concentrations of HYN. Embryos were cultured at 37° C. in 6% CO2:5% O2:89% N2 in an embryo incubation volume of 10 embryos: 20 μl of medium. Embryos were cultured in medium G1.2 for 48 h followed by 48 h of culture in medium G2.2. The negative control treatment was no protein.
Fertilized eggs were cultured for 4 days. Embryos were cultured at 37° C. in 6% CO2:5% O2:89% N2 in an embryo incubation volume of 10 embryos: 20 μl of medium. Embryos were cultured in medium G 1.2 for 48 h followed by 48 h of culture in medium G 2.2.
Embryos were cultured at 37° C. in 6% CO2:5% O2:89% N2 in an embryo incubation volume of 10 embryos: 20 μl of medium. Embryos were cultured in medium G1.2 for 48 h followed by 48 h of culture in medium G2.2.

[5] = tested on: human embryos; assay: Human IVF: pregnancies and implantation; type: in vivo; conditions: human IVF patients
Excerpt: The IVF protocol as outlined in Gardner et al. 1988 and Schoolcraft 1999 were used in this example.

[6] = tested on: outbred mouse embryo; assay: Outbred mouse embryo development after transfer of cultured blastocysts to recipient mice; type: in vivo; conditions: cultured 4 days, transferred at blastocyst stage to recipient females
Method: Media G1.2/G2.2 were prepared from concentrated stock solutions as taught in Example 1. rHA was added as a 250 mg/ml stock solution of 200 μto 9.8 mls of media, fermented HYN was added from a x100 stock solution of 100 μl to 10 mls of media. Subsequent experiments investigated replacing albumin purified from blood with rHA together with fermented HYN for outbred mouse embryo development after transfer to recipient mice. Fertilized eggs were cultured for 4 days and then transferred at the blastocyst stage to recipient females. Embryos were cultured at 37° C. in 6% CO2:5% O2:89% N2 in an embryo incubation volume of 10 embryos: 20 μl of medium. Embryos were cultured in medium G1.2 for 48 h followed by 48 h of culture in medium G2.2.

[7] = tested on: cow embryos; assay: Cow embryo development in culture, fertilized eggs cultured 6 to 7 days (G1.2 72 h, then G2.2 72 h); type: cell-based
Method: (§2) Fertilized eggs were cultured for 6 to 7 days. Embryos were cultured at 38.5° C. in 6% CO2:5% O2:89% N2 in 500 μl of medium. Embryos were cultured in medium G1.2 for 72 h followed by 72 h of culture in medium G2.2.
as §2
Fertilized eggs were cultured for 6 to 7 days. Embryos were cultured at 38.5° C. in 6% CO2:5% O2:89% N2 in 500 μl of medium. Embryos were cultured in medium G1.2 for 72 h, followed by 72 h of culture in medium G2.2. Blastocysts were either stained for cell numbers or frozen and subsequently thawed to assess survival.

[8] = CF1 mouse blastocysts after freezing and thawing
[9] = 5 mg/ml in medium, 4 days culture
[10] = Example 3: 5 mg/ml HSA vs 1.25 mg/ml rHA + 0.125 mg/ml HYN, 4 days culture
[11] = 1.25 mg/ml in medium, 4 days culture
[12] = 2.5 mg/ml in medium, 4 days culture

HSA: naturally occurring human serum albumin (blood product), positive control
Attachment (%) [1]: 89.5%
Blastocyst Hatching Rates (%) [2]: 49.0%
Development to the Blastocyst Stage (%) [2]: 88.2%
Completely Hatched After Freezing [3, 8]: 28.6
Hatching After Freezing (%) [3, 8]: 42.9%
Re-expansion After Freezing (%) [3, 8]: 76.1%
% ICM/Total [4, 9]: 23.6 ± 0.6%
Blastocyst [4, 9]: 72.6
Cell Number [4, 9]: 74.3 ± 2.4^bc
Hatching [4, 9]: 38.7
ICM Number [4, 9]: 17.2 ± 0.7^b
TE Number [4, 9]: 56.2 ± 2.0^bc
% ICM/Total [4, 10]: 24.3 ± 0.5%
Cell Number [4, 10]: 73.3 ± 1.7
ICM Number [4, 10]: 17.8 ± 0.6
TN Number [4, 10]: 55.5 ± 1.3
Implantation Rates [5]: 32.8%
Resulting Pregnancies (percent) [5]: 70%
Resulting Pregnancies (number) ([5]; HSA 10 patients, RHA + citrate + HYN 12 patients): 7
Fetal development (%) [6]: 43.3%
Fetus/implantation site (%) [6]: 68.4%
Implantation rate (%) [6]: 63.3%
Weight [6]: 208 mg

rHA: recombinant human albumin, in one embodiment obtained from genetically modified yeast
development of the ICM (outgrowth) compared to human serum albumin [1]: increased
Total Blastocyst Day 6 ([7]; Example 7, cow, day 6): 22.1^b
Total Blastocyst Day 7 ([7]; Example 7, cow, day 7): 38.4
Day 6 Blastocyst Cell Number ([7]; Example 8, cow, day 6): 123 ± 7^b
Day 6 Blastocyst Inner Cell Mass Cell Number ([7]; Example 8, cow, day 6): 37.9 ± 1.9^b
Total Blastocyst Day 6 ([7]; Example 8, cow, day 6): 36.6
blastocyst hatching after thawing compared to HSA ([3]; P<0.05): significantly increases
% ICM/Total [4, 11]: 24.0 ± 0.6%
Blastocyst [4, 11]: 70.7
Cell Number [4, 11]: 72.6 ± 2.2^bc
Hatching [4, 11]: 46.6
ICM Number [4, 11]: 17.7 ± 0.6^b
TE Number [4, 11]: 56.4 ± 1.9^bc
% ICM/Total [4, 12]: 24.2 ± 0.5%
Blastocyst [4, 12]: 75
Cell Number [4, 12]: 78.1 ± 2.5^b
Hatching [4, 12]: 39.3
ICM Number [4, 12]: 18.4 ± 0.5^b
TE Number [4, 12]: 58.4 ± 2.1^b
% ICM/Total [4, 9]: 25.2 ± 0.7%
Blastocyst [4, 9]: 76.8
Cell Number [4, 9]: 65.9 ± 2.7^ac
Hatching [4, 9]: 37.5
ICM Number [4, 9]: 16.3 ± 0.7^b
TE Number [4, 9]: 49.6 ± 2.4^ac
embryo development in culture, replacement of HSA ([4]; concentrations of 1.25 to 2.5 mg/ml): able to replace HSA
